Results as given in US20070161107A1, “Differentiation of human embryonic stem cells to cardiomyocytes” (priority 2003, published 2007).

System: hES cells
Assay: Direct addition of growth factors to hES cells, differentiation
Type: cell-based, human
Source text: Before hES cells can be applied clinically it is important to control their growth and differentiation. Both embryonic and adult stem cells from the mouse apparently respond to cues within the mouse embryo to differentiate to (virtually) all somatic tissues (reviewed in 25). If these cues and the signal transduction pathways they activate can be identified, this knowledge can be utilized in controlling differentiation of stem cells in culture and in vivo. Here, we have identified (visceral-) endoderm as a cellular source of signals that result in human ES cells differentiating to cardiomyocytes with characteristics of fetal ventricular, atrial or pacemaker cells. This is the first time that inductive cellular sources of signals have been identified that result in human ES cells forming cardiomyocytes, although various studies have shown that cells with endodermlike properties have this effect on mouse ES and EC cells (1, 3, 26-28). […] This contrasts with other reports (11-13) where the hES cells do form embryoid bodies containing cardiomyocytes. […] Endoderm in the mouse embryo expresses BMP2 (31) and inhibitors of wnt signaling (32, 33). […] We therefore think it unlikely that activation of the BMP signaling pathway is the primary event initiated by END-2/hES cell co-culture. […]

B1: BMP2: BMP signalling factor expressed by mouse embryo endoderm, added directly to hES cells (protein, UniProt P12643 283-396, looked up)
Bone morphogenetic protein 2: QAKHKQRKRLKSSCKRHPLYVDFSDVGWNDWIVAPPGYHAFYCHGECPFPLADHLNSTNHAIVQTLVNSVNSKIPKACCVPTELSAISMLYLDENEKVVLKNYQDMVVEGCGCR
cardiomyocyte differentiation of hES cells: did not result in cardiomyocyte differentiation
lineage formed by hES cells (data not shown): appeared to form extraembryonic endoderm
